Molecules are shown by their SMILES. The entries are a selection whose mix differs from that of the whole data set. Some of these compounds have results that are not shown, active ones among them. Records with an inconclusive call do not appear. Calls of active or inactive are those of the source. Calls come from the whole dose curve; as a rule, active = well fitted inhibition curve with a large enough effect; inconclusive = small, poorly fitted or top-dose-only effect; inactive = flat fitted curve, though single readings scatter.

Chains of the proteins cited; added tags and fusions are not shown.
UniProt Q9BV86, whole entry: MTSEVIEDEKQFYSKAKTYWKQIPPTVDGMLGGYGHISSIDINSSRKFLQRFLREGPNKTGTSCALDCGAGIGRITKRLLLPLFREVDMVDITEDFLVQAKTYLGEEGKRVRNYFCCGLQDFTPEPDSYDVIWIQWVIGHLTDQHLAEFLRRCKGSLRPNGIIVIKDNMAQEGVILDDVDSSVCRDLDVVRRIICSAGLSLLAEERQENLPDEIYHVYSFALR

The target in the assay is N-terminal Xaa-Pro-Lys N-methyltransferase 1 (Homo sapiens) (UniProt Q9BV86). The assay is described as follows: Primary qHTS for Inhibitors of N-terminal methyltransferase 1 (NTMT1): MTaseGlo Assay.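 Note: plate controls were DMSO vehicle for no effect and no enzyme for full effect; nearly all actives have a fitted effect of over 65% in size.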 The following applies: NTMT1 MTase-Glo SAH luminescence, purified enzyme; at 114 µM (top of the series). An excerpt: Assay Submitter (PI): Rong Huang Ph.D.
Purdue University, West Lafayette, IN 47907
The N-terminal methytransferase 1 is the first methyltransferase that methylates protein alpha-N-amines and plays an important role in regulating cell mitosis, chromatin interactions and DNA repair. It is observed to be over-expressed in various cancer patient tissues like malignant melanoma and colorectal cancer tissues. Knockdown of NTMT1 in cancer cells causes cell mitotic defects and enhances sensitivity to DNA damaging chemotherapeutics. […] These critical cellular processes in which NTMT1 is implicated, coupled with emerging links to cellular dysfunction, strengthen the inference that NTMT1 is a compelling novel anticancer target. Progress have been made in understanding the molecular properties of NTMT1 and the biological consequences of protein alpha-N-terminal methylation, but there are no specific small molecule probes available for NTMT1 to fully characterize its MTase activity. To address this unmet need, a panel of assay is created and established to enable quantitative high-throughput screening (qHTS) for novel, potent, and selective small molecule NTMT1 inhibitors. Two orthogonal qHTS that use different reagents (ThioGlo vs. MTaseGlo) are developed for primary robotic screening against the NCATS chemical library of more than 400,000 small molecules. Identified inhibitors are reacquired, validated, and further characterized.
MTaseGlo Assay is a luminescence screen that measure the activity of methyltransferases based on the reaction product S-adenosyl homocysteine (SAH). The substrate SAM is converted to SAH upon enzyme activation. MTase-Glo reagent and detection solution convert SAH to ATP and measure the light from the luciferase reaction.
Materials: NTMT1 enzyme, substrate SPKRIA, control peptide RCC1-6 is provided by the Huang laboratory.
SEQUENCE No. (e.g., 1, 2, 3, etc.); […] (e.g., Cells, Incubation, Reagent, etc.); VALUE; DESCRIPTION
1; Enzyme; 3 uL; Dispense enzyme mixture (final concentrations of 125 nM NTMT1 and 100 uM SAM) into Greiner 1536-well white / solid bottom assay plate (Greiner Bio One, Monroe, NC).
2; Compounds; 23 nL; Compounds and controls were transferred via a Kalypsys Pin Tool (Wako USA) equipped with a 1536-slotted pin array (Wako Automation, Richmond, VA)
3; Incubation; 15 min; Incubate at room temperature
4; Substrate; 1 uL; Dispense 1 uL of substrate at final concentration of 1 uM. Buffer solution was dispensed in control wells. The assay plate was covered with metal lids.
5; Incubation; 30 min; Incubate at room temperature, protected from lights.
6; Reagent; 1 uL; Dispensed 5x MTase-Glo detection reagent (R) into the assay plate. The plate was covered with metal lids.
7; Incubation; 30 min; Incubate the assay plates at room temperature in the dark to allow for SAH to be converted to ADP.
8; Reagent; 5 uL; Dispense 5 uL of 1x MTase-Glo Detection Solution (R) to allow for ADP to be converted to ATP which was then detected with a luciferase reaction.
9; Centrifuge; 15 sec; Centrifuge the assay plate for 15 seconds at 1000 RPM.
10; Incubation; 30 min; Assay plates were incubation at room temperature in the dark.
11; Detection; Luminescence; Plates were read on ViewLux detector (PerkinElmer). Data were normalized to no-enzyme (0% activity) and no-inhibitor (DMSO; 100%) controls, and the resulting percent inhibition data were fitted to a 4-parameter Hill equation using GraphPad Prism.
A general note: qHTS replaces the single test concentration by a dilution series.
As for `O=C(C1CCC1)N1CCN(C/C=C/c2ccccc2)CC1`, the activity change, negative = inhibition was inactive: 5.11%.

As for `CN(C)C1(CNC(=O)c2cccc(Cl)c2)CCCCC1`, the activity change, negative = inhibition was inactive: -3.92%.

For `CN(C)C1(CNC(=O)c2ccccc2F)CCCCC1`, the activity change, negative = inhibition is inactive: 8.22%.

Take `CN(C)C1(CNC(=O)c2ccccc2[N+](=O)[O-])CCCCC1`: the activity change, negative = inhibition is inactive: 1.46%.

For the compound `CCCCOc1ccccc1C(=O)NCC1(N(C)C)CCCCC1`, the activity change, negative = inhibition was inactive: 8.22%.

As for `CCOc1cccc(C(=O)NCC2(N(C)C)CCCCC2)c1`, the activity change, negative = inhibition is inactive: 1.57%.

As for `COc1ccc(C(=O)NCC2(N(C)C)CCCCC2)cc1Cl`, the activity change, negative = inhibition is inactive: 5.85%.

Regarding `COc1cccc(C(=O)NCC2(N3CCOCC3)CCCCC2)c1`, the activity change, negative = inhibition is inactive: 4.5%.

As for `CC(C)COc1ccc(C(=O)NCC2(N(C)C)CCCCC2)cc1`, the activity change, negative = inhibition is inactive: -1.58%.

Turning to `Cc1cccc(C(=O)NCC2(N(C)C)CCCCC2)c1`, the activity change, negative = inhibition was inactive: 3.77%.

Turning to `COc1cc(C(=O)NCC2(N(C)C)CCCCC2)cc(OC)c1OC`, the activity change, negative = inhibition is inactive: 5.63%.

For the compound `CC(C)Oc1ccc(C(=O)NCC2(N(C)C)CCCCC2)cc1`, the activity change, negative = inhibition was inactive: -3.38%.

The values are drawn from PubChem BioAssay AID1645870 (National Center for Advancing Translational Sciences (NCATS), 2021).
